Here are results for eight molecules from patent US20180066015A1, “INHIBITORS OF GROWTH FACTOR ACTIVATION ENZYMES” (Washington University, published 2018).

The chains are these.
T1: matriptase (Charles Craik, UCSF), recombinant (Homo sapiens (Human), UniProt Q9Y5Y6)
T1 sequence: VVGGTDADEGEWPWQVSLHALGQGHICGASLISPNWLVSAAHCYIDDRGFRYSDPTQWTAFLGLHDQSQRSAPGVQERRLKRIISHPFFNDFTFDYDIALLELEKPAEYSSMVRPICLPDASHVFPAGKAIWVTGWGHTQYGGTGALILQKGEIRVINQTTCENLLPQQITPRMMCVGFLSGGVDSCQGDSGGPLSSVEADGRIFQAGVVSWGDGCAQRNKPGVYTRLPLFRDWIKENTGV

B1: H-dWLR-kbt-COOH (peptide)
peptide: WLR
modifications: free N-terminus (H-); D-Trp at position 1 (dW); C-terminal ketobenzothiazole-COOH
B2: H-dWLR-kbt (peptide)
peptide: WLR
modifications: free N-terminus (H-); D-Trp at position 1 (dW); C-terminal ketobenzothiazole (kbt)
B3: H-dWFR-kbt (peptide)
peptide: WFR
modifications: free N-terminus (H-); D-Trp at position 1 (dW); C-terminal ketobenzothiazole (kbt)

One assay concerns the target T1, matriptase (Charles Craik, UCSF), …. Description: fluorogenic inhibition assay. As for the experimental part:
(§1) Inhibitors (11-pt serial dilutions, 0-20 μM final concentration in reaction) were serially diluted in DMSO (2% DMSO final concentration) and then mixed with either recombinant serine protease domain of HGFA [Z. Han, P. K. Harris, D. E. Jones, R. Chugani, T. Kim, M. Agarwal, W. Shen, S. A. Wildman, J. W. Janetka, Acs Med Chem Lett 2014, 5, 1219-1224], matriptase (Charles Craik, UCSF) or hepsin* (#4776-SE-010, R&D Systems, Minneapolis, Minn.) in black 384 well plates (Corning #3575. Corning, N.Y.). […] The final substrate concentrations for all assays were at the Kₘ for the respective enzymes. Changes in fluorescence (excitation at 380 nm and emission at 460 nm) were measured at room temperature over time in a Biotek Synergy 2 plate reader (Winnoski, Vt.). Using GraphPad Prism version 6.04 software program, (GraphPad Software, San Diego, Calif., www.graphpad.com), a four parameter curve fit was used to determine the inhibitor IC₅₀s from a plot of the mean reaction velocity versus the inhibitor concentration. The IC₅₀ values represent the average of three separate experimental determinations.
For orientation: Ki means the dissociation constant of the complex between target and ligand, obtained from inhibition or displacement. On to LLR (N-terminal acetyl; C-terminal ketothiazole (kt)) [Ac-LLR-kt], for which the Ki came to 27.9 nM.

For the next assay the target is unchanged. Description: fluorogenic inhibition assay. The source holds these as a separate data set. As for the experimental part: as §1
Fluorescent inhibitor and chromogenic proteolytic assays were performed in general accordance with the procedures described in Example 4 for compounds prepared in Examples 5 and 6.
Turning to WFR (free N-terminus (H-); C-terminal ketobenzothiazole (kbt)) [H-WFR-kbt], the Ki came to 1870 nM.

B1: the Ki is 364 nM.

For the molecule B2, the Ki is 34.6 nM.

RLR (free N-terminus (H-); C-terminal ketobenzothiazole (kbt)) [H-RLR-kbt]: the Ki worked out at 3.3 nM.

For WLR (free N-terminus (H-); C-terminal ketobenzothiazole (kbt)) [H-WLR-kbt], the Ki was found to be 33.5 nM.

Turning to B3, the Ki worked out at 135 nM.

Take WLR (free N-terminus (H-); C-terminal ketobenzothiazole-COOH) [H-WLR-kbt-COOH]: the Ki was determined as 1210 nM.
